Measurements taken from ChEMBL document CHEMBL5260839 (J Med Chem, 2019).

Protein sequences, listed by entry. Tags and fused reporters are not part of them. Lines headed by an entry give the natural chain unless they say otherwise; changes in a name come on top.
UniProt Q00987, whole entry, looked up: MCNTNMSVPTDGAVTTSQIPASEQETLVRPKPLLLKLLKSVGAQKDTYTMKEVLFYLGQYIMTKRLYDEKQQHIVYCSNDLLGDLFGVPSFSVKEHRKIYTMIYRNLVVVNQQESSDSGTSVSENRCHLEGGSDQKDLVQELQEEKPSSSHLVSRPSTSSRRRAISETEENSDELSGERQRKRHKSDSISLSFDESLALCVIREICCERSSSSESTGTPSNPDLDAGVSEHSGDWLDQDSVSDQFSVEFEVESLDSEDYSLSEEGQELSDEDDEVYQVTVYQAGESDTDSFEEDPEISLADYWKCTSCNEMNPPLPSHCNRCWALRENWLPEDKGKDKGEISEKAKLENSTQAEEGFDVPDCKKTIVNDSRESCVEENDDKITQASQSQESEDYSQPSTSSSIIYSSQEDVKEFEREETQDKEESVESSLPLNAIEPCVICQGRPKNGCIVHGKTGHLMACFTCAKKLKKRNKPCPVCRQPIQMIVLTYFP
UniProt Q96SW2: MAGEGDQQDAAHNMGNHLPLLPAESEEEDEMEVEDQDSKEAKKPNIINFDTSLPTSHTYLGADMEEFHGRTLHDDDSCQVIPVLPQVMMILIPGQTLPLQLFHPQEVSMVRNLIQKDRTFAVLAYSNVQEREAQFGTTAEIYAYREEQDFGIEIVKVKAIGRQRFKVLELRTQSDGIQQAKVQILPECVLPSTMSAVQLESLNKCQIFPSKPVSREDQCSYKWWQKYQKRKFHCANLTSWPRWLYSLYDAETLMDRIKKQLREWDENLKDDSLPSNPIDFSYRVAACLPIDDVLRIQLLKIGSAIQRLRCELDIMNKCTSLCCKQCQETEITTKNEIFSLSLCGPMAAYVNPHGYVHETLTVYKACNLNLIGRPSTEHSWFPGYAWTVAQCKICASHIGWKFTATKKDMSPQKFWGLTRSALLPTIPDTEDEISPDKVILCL

target: T1, Protein cereblon/E3 ubiquitin-protein ligase Mdm2 (Homo sapiens) (UniProt Q00987+Q96SW2); experiment: PROTAC activity at CRBN/MDM2 in human RS4-11 cells harbouring wildtype p53 assessed as decrease in MDM2 protein level at 30 nM incubated for 2 hrs by Western blot analysis; assay type: cell-based

Row | Structure (SMILES) | fold change (FC)
1 | O=C1CCC(N2C(=O)c3cccc(NCCCCCCNC(=O)c4ccc(NC(=O)[C@@H]5NC6(CCCCC6)[C@@]6(C(=O)Nc7cc(Cl)ccc76)[C@H]5c5cccc(Cl)c5F)cc4)c3C2=O)C(=O)N1 (stereo partly specified) | 0.9
2 | O=C1CCC(N2Cc3cc(CC#CCCCNC(=O)c4ccc(NC(=O)[C@@H]5NC6(CCCCC6)[C@@]6(C(=O)Nc7cc(Cl)ccc76)[C@H]5c5cccc(Cl)c5F)cc4)ccc3C2=O)C(=O)N1 (stereo partly specified) | 0.3
3 | O=C1CCC(N2Cc3ccc(CC#CCCCNC(=O)c4ccc(NC(=O)[C@@H]5NC6(CCCCC6)[C@@]6(C(=O)Nc7cc(Cl)ccc76)[C@H]5c5cccc(Cl)c5F)cc4)cc3C2=O)C(=O)N1 (stereo partly specified) | 0.2
4 | O=C1CCC(N2C(=O)c3cccc(NCCNC(=O)c4ccc(NC(=O)[C@@H]5NC6(CCCCC6)[C@@]6(C(=O)Nc7cc(Cl)ccc76)[C@H]5c5cccc(Cl)c5F)cc4)c3C2=O)C(=O)N1 (stereo partly specified) | 0.5
5 | O=C1CCC(N2C(=O)c3cccc(NCCCCNC(=O)c4ccc(NC(=O)[C@@H]5NC6(CCCCC6)[C@@]6(C(=O)Nc7cc(Cl)ccc76)[C@H]5c5cccc(Cl)c5F)cc4)c3C2=O)C(=O)N1 (stereo partly specified) | 0.1
6 | O=C1CCC(N2C(=O)c3cccc(NCCOCCOCCNC(=O)c4ccc(NC(=O)[C@@H]5NC6(CCCCC6)[C@@]6(C(=O)Nc7cc(Cl)ccc76)[C@H]5c5cccc(Cl)c5F)cc4)c3C2=O)C(=O)N1 (stereo partly specified) | 0.07
7 | O=C1CCC(N2C(=O)c3cccc(NCCOCCOCCOCCNC(=O)c4ccc(NC(=O)[C@@H]5NC6(CCCCC6)[C@@]6(C(=O)Nc7cc(Cl)ccc76)[C@H]5c5cccc(Cl)c5F)cc4)c3C2=O)C(=O)N1 (stereo partly specified) | 0.4

target: T1, Protein cereblon/E3 ubiquitin-protein ligase Mdm2 (Homo sapiens); experiment: PROTAC activity at CRBN/MDM2 in human RS4-11 cells harbouring wildtype p53 assessed as decrease in MDM2 protein level at 10 nM incubated for 2 hrs by Western blot analysis; assay type: cell-based

Row | Structure (SMILES) | fold change (FC)
8 | O=C1CCC(N2Cc3cc(CC#CCCCNC(=O)c4ccc(NC(=O)[C@@H]5NC6(CCCCC6)[C@@]6(C(=O)Nc7cc(Cl)ccc76)[C@H]5c5cccc(Cl)c5F)cc4)ccc3C2=O)C(=O)N1 (stereo partly specified) | 0.2
9 | O=C1CCC(N2Cc3ccc(CC#CCCCNC(=O)c4ccc(NC(=O)[C@@H]5NC6(CCCCC6)[C@@]6(C(=O)Nc7cc(Cl)ccc76)[C@H]5c5cccc(Cl)c5F)cc4)cc3C2=O)C(=O)N1 (stereo partly specified) | 0.2
10 | O=C1CCC(N2C(=O)c3cccc(NCCCCNC(=O)c4ccc(NC(=O)[C@@H]5NC6(CCCCC6)[C@@]6(C(=O)Nc7cc(Cl)ccc76)[C@H]5c5cccc(Cl)c5F)cc4)c3C2=O)C(=O)N1 (stereo partly specified) | 0.3
11 | O=C1CCC(N2C(=O)c3cccc(NCCOCCOCCNC(=O)c4ccc(NC(=O)[C@@H]5NC6(CCCCC6)[C@@]6(C(=O)Nc7cc(Cl)ccc76)[C@H]5c5cccc(Cl)c5F)cc4)c3C2=O)C(=O)N1 (stereo partly specified) | 0.1
12 | O=C1CCC(N2C(=O)c3cccc(NCCOCCOCCOCCNC(=O)c4ccc(NC(=O)[C@@H]5NC6(CCCCC6)[C@@]6(C(=O)Nc7cc(Cl)ccc76)[C@H]5c5cccc(Cl)c5F)cc4)c3C2=O)C(=O)N1 (stereo partly specified) | 0.3

target: T1, Protein cereblon/E3 ubiquitin-protein ligase Mdm2 (Homo sapiens); experiment: PROTAC activity at CRBN/MDM2 in human RS4-11 cells harbouring wildtype p53 assessed as increase in p53 accumulation at 30 nM incubated for 2 hrs by Western blot analysis; assay type: cell-based

Row | Structure (SMILES) | fold change (FC)
13 | O=C1CCC(N2C(=O)c3cccc(NCCCCCCNC(=O)c4ccc(NC(=O)[C@@H]5NC6(CCCCC6)[C@@]6(C(=O)Nc7cc(Cl)ccc76)[C@H]5c5cccc(Cl)c5F)cc4)c3C2=O)C(=O)N1 (stereo partly specified) | 1.4
14 | O=C1CCC(N2Cc3cc(CC#CCCCNC(=O)c4ccc(NC(=O)[C@@H]5NC6(CCCCC6)[C@@]6(C(=O)Nc7cc(Cl)ccc76)[C@H]5c5cccc(Cl)c5F)cc4)ccc3C2=O)C(=O)N1 (stereo partly specified) | 2.4
15 | O=C1CCC(N2Cc3ccc(CC#CCCCNC(=O)c4ccc(NC(=O)[C@@H]5NC6(CCCCC6)[C@@]6(C(=O)Nc7cc(Cl)ccc76)[C@H]5c5cccc(Cl)c5F)cc4)cc3C2=O)C(=O)N1 (stereo partly specified) | 4.1
16 | O=C1CCC(N2C(=O)c3cccc(NCCNC(=O)c4ccc(NC(=O)[C@@H]5NC6(CCCCC6)[C@@]6(C(=O)Nc7cc(Cl)ccc76)[C@H]5c5cccc(Cl)c5F)cc4)c3C2=O)C(=O)N1 (stereo partly specified) | 1.6
17 | O=C1CCC(N2C(=O)c3cccc(NCCCCNC(=O)c4ccc(NC(=O)[C@@H]5NC6(CCCCC6)[C@@]6(C(=O)Nc7cc(Cl)ccc76)[C@H]5c5cccc(Cl)c5F)cc4)c3C2=O)C(=O)N1 (stereo partly specified) | 3.8
18 | O=C1CCC(N2C(=O)c3cccc(NCCOCCOCCNC(=O)c4ccc(NC(=O)[C@@H]5NC6(CCCCC6)[C@@]6(C(=O)Nc7cc(Cl)ccc76)[C@H]5c5cccc(Cl)c5F)cc4)c3C2=O)C(=O)N1 (stereo partly specified) | 5.3
19 | O=C1CCC(N2C(=O)c3cccc(NCCOCCOCCOCCNC(=O)c4ccc(NC(=O)[C@@H]5NC6(CCCCC6)[C@@]6(C(=O)Nc7cc(Cl)ccc76)[C@H]5c5cccc(Cl)c5F)cc4)c3C2=O)C(=O)N1 (stereo partly specified) | 5.6

target: T1, Protein cereblon/E3 ubiquitin-protein ligase Mdm2 (Homo sapiens); experiment: PROTAC activity at CRBN/MDM2 in human RS4-11 cells harbouring wildtype p53 assessed as decrease in MDM2 protein level at 100 nM incubated for 2 hrs by Western blot analysis; assay type: cell-based

Row | Structure (SMILES) | fold change (FC)
20 | O=C1CCC(N2C(=O)c3cccc(NCCCCCCNC(=O)c4ccc(NC(=O)[C@@H]5NC6(CCCCC6)[C@@]6(C(=O)Nc7cc(Cl)ccc76)[C@H]5c5cccc(Cl)c5F)cc4)c3C2=O)C(=O)N1 (stereo partly specified) | 0.6
21 | O=C1CCC(N2C(=O)c3cccc(NCCNC(=O)c4ccc(NC(=O)[C@@H]5NC6(CCCCC6)[C@@]6(C(=O)Nc7cc(Cl)ccc76)[C@H]5c5cccc(Cl)c5F)cc4)c3C2=O)C(=O)N1 (stereo partly specified) | 0.4

target: T1, Protein cereblon/E3 ubiquitin-protein ligase Mdm2 (Homo sapiens); experiment: PROTAC activity at CRBN/MDM2 in human RS4-11 cells harbouring wildtype p53 assessed as increase in p53 accumulation at 100 nM incubated for 2 hrs by Western blot analysis; assay type: cell-based

Row | Structure (SMILES) | fold change (FC)
22 | O=C1CCC(N2C(=O)c3cccc(NCCCCCCNC(=O)c4ccc(NC(=O)[C@@H]5NC6(CCCCC6)[C@@]6(C(=O)Nc7cc(Cl)ccc76)[C@H]5c5cccc(Cl)c5F)cc4)c3C2=O)C(=O)N1 (stereo partly specified) | 1.8
23 | O=C1CCC(N2C(=O)c3cccc(NCCNC(=O)c4ccc(NC(=O)[C@@H]5NC6(CCCCC6)[C@@]6(C(=O)Nc7cc(Cl)ccc76)[C@H]5c5cccc(Cl)c5F)cc4)c3C2=O)C(=O)N1 (stereo partly specified) | 2.4

target: T1, Protein cereblon/E3 ubiquitin-protein ligase Mdm2 (Homo sapiens); experiment: PROTAC activity at CRBN/MDM2 in human RS4-11 cells harbouring wildtype p53 assessed as decrease in MDM2 protein level at 3 nM incubated for 2 hrs by Western blot analysis; assay type: cell-based

Row | Structure (SMILES) | fold change (FC)
24 | O=C1CCC(N2Cc3cc(CC#CCCCNC(=O)c4ccc(NC(=O)[C@@H]5NC6(CCCCC6)[C@@]6(C(=O)Nc7cc(Cl)ccc76)[C@H]5c5cccc(Cl)c5F)cc4)ccc3C2=O)C(=O)N1 (stereo partly specified) | 0.4
25 | O=C1CCC(N2Cc3ccc(CC#CCCCNC(=O)c4ccc(NC(=O)[C@@H]5NC6(CCCCC6)[C@@]6(C(=O)Nc7cc(Cl)ccc76)[C@H]5c5cccc(Cl)c5F)cc4)cc3C2=O)C(=O)N1 (stereo partly specified) | 0.4
26 | O=C1CCC(N2C(=O)c3cccc(NCCCCNC(=O)c4ccc(NC(=O)[C@@H]5NC6(CCCCC6)[C@@]6(C(=O)Nc7cc(Cl)ccc76)[C@H]5c5cccc(Cl)c5F)cc4)c3C2=O)C(=O)N1 (stereo partly specified) | 0.5
27 | O=C1CCC(N2C(=O)c3cccc(NCCOCCOCCNC(=O)c4ccc(NC(=O)[C@@H]5NC6(CCCCC6)[C@@]6(C(=O)Nc7cc(Cl)ccc76)[C@H]5c5cccc(Cl)c5F)cc4)c3C2=O)C(=O)N1 (stereo partly specified) | 0.2

target: T1, Protein cereblon/E3 ubiquitin-protein ligase Mdm2 (Homo sapiens); experiment: PROTAC activity at CRBN/MDM2 in human RS4-11 cells harbouring wildtype p53 assessed as increase in p53 accumulation at 3 nM incubated for 2 hrs by Western blot analysis; assay type: cell-based

Row | Structure (SMILES) | fold change (FC)
28 | O=C1CCC(N2Cc3cc(CC#CCCCNC(=O)c4ccc(NC(=O)[C@@H]5NC6(CCCCC6)[C@@]6(C(=O)Nc7cc(Cl)ccc76)[C@H]5c5cccc(Cl)c5F)cc4)ccc3C2=O)C(=O)N1 (stereo partly specified) | 1.7
29 | O=C1CCC(N2Cc3ccc(CC#CCCCNC(=O)c4ccc(NC(=O)[C@@H]5NC6(CCCCC6)[C@@]6(C(=O)Nc7cc(Cl)ccc76)[C@H]5c5cccc(Cl)c5F)cc4)cc3C2=O)C(=O)N1 (stereo partly specified) | 1.6
30 | O=C1CCC(N2C(=O)c3cccc(NCCCCNC(=O)c4ccc(NC(=O)[C@@H]5NC6(CCCCC6)[C@@]6(C(=O)Nc7cc(Cl)ccc76)[C@H]5c5cccc(Cl)c5F)cc4)c3C2=O)C(=O)N1 (stereo partly specified) | 1.8
31 | O=C1CCC(N2C(=O)c3cccc(NCCOCCOCCNC(=O)c4ccc(NC(=O)[C@@H]5NC6(CCCCC6)[C@@]6(C(=O)Nc7cc(Cl)ccc76)[C@H]5c5cccc(Cl)c5F)cc4)c3C2=O)C(=O)N1 (stereo partly specified) | 3

target: T1, Protein cereblon/E3 ubiquitin-protein ligase Mdm2 (Homo sapiens); experiment: PROTAC activity at CRBN/MDM2 in human RS4-11 cells harbouring wildtype p53 assessed as increase in p53 accumulation at 10 nM incubated for 2 hrs by Western blot analysis; assay type: cell-based

Row | Structure (SMILES) | fold change (FC)
32 | O=C1CCC(N2Cc3cc(CC#CCCCNC(=O)c4ccc(NC(=O)[C@@H]5NC6(CCCCC6)[C@@]6(C(=O)Nc7cc(Cl)ccc76)[C@H]5c5cccc(Cl)c5F)cc4)ccc3C2=O)C(=O)N1 (stereo partly specified) | 2.2
33 | O=C1CCC(N2Cc3ccc(CC#CCCCNC(=O)c4ccc(NC(=O)[C@@H]5NC6(CCCCC6)[C@@]6(C(=O)Nc7cc(Cl)ccc76)[C@H]5c5cccc(Cl)c5F)cc4)cc3C2=O)C(=O)N1 (stereo partly specified) | 2.4
34 | O=C1CCC(N2C(=O)c3cccc(NCCCCNC(=O)c4ccc(NC(=O)[C@@H]5NC6(CCCCC6)[C@@]6(C(=O)Nc7cc(Cl)ccc76)[C@H]5c5cccc(Cl)c5F)cc4)c3C2=O)C(=O)N1 (stereo partly specified) | 2.3
35 | O=C1CCC(N2C(=O)c3cccc(NCCOCCOCCNC(=O)c4ccc(NC(=O)[C@@H]5NC6(CCCCC6)[C@@]6(C(=O)Nc7cc(Cl)ccc76)[C@H]5c5cccc(Cl)c5F)cc4)c3C2=O)C(=O)N1 (stereo partly specified) | 4.2
36 | O=C1CCC(N2C(=O)c3cccc(NCCOCCOCCOCCNC(=O)c4ccc(NC(=O)[C@@H]5NC6(CCCCC6)[C@@]6(C(=O)Nc7cc(Cl)ccc76)[C@H]5c5cccc(Cl)c5F)cc4)c3C2=O)C(=O)N1 (stereo partly specified) | 4.4
